Experimental data: US20260382574A1, “CRYSTAL OF SPIRO COMPOUND AND PREPARATION METHOD THEREFOR” (published 2026)

How the values were obtained:
[1] = Chemical stability investigation test; details: for Initial purity: before storage; for chemical stability: various influencing factors, form B 12 days, form A 12 and 30 days
413 kinases = experiment: KinaseProfiler, selectivity against 413 kinases; details: compound 10 μM; ATP 10 μM; all of 413 kinases
[2] = tested on: 47 safety-related targets; experiment: SAFETYscan, effect on 47 safety-related targets
cardiovascular system = experiment: Safety pharmacology: effect on cardiovascular system in cynomolgus monkeys; details: 40, 160 and 600 mg/kg/day, nasogastric twice daily, 14 days

Compound	Initial purity [1] [%]	chemical stability [1]	inhibition rate (413 kinases)	EC50 ([2]; all of 47 safety-related targets, inhibition or activation) [µM]	inhibition or activation effect ([2]; at 100 μM, 47 safety-related targets)	arrhythmia (cardiovascular system)	cardiovascular system changes (cardiovascular system)	ECG parameters or blood pressure (cardiovascular system; throughout the entire experiment)
CC(C)(C)[C@H](NC(=O)C(F)(F)F)C(=O)N1CC2(C[C@H]1C(=O)N[C@H](C#N)C[C@@H]1CCNC1=O)SCCS2 [Crystal form A of compound of formula (I)]	98.78	stable in chemical stability with no significant change in content	–	–	–	–	–	–
CC(C)(C)[C@H](NC(=O)C(F)(F)F)C(=O)N1CC2(C[C@H]1C(=O)N[C@H](C#N)C[C@@H]1CCNC1=O)SCCS2	–	–	less than 30%	> 100	no significant inhibition or activation effect	no test sample-related arrhythmia was observed	no test sample-related cardiovascular system changes were observed	no test sample-related changes in ECG parameters or blood pressure were observed
CC(C)(C)[C@H](NC(=O)C(F)(F)F)C(=O)N1CC2(C[C@H]1C(=O)N[C@H](C#N)C[C@@H]1CCNC1=O)SCCS2 [Crystal form B of methyl tert-butyl ether solvate of compoun]	98.41	stable in chemical stability with no significant change in content	–	–	–	–	–	–
